Assay results taken from ChEMBL document CHEMBL3596119, “Synthesis and biological characterization of a promising F-18 PET tracer for vesicular acetylcholine transporter” (Bioorg Med Chem, 2015).

Target: T1, Vesicular acetylcholine transporter (Homo sapiens, UniProt Q16572)
T1 sequence (Q16572 whole entry): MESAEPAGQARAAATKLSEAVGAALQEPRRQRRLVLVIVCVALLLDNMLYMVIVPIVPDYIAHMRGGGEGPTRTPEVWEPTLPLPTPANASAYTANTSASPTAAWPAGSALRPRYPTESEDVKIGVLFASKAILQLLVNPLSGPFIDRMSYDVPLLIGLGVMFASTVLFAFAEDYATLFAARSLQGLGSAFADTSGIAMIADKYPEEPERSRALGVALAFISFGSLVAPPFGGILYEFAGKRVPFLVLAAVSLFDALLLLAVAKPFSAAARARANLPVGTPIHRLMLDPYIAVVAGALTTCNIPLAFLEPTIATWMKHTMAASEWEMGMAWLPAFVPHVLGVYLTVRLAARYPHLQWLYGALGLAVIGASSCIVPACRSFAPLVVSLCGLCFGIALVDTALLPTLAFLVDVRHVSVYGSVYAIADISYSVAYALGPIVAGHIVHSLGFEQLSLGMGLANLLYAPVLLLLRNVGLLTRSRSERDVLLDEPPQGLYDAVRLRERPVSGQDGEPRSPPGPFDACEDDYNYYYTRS
Assay: Displacement of [3H]-vesamicol from human VAChT after 24 hrs by liquid scintillation spectrometry analysis

- Ki: 2.7 nM
SMILES: O=C(c1ccc(F)cc1)c1cccc2c1C[C@@H](N1CCC(c3ccccc3)CC1)[C@H](O)C2
